## Binding of CDR-mutated scFvs to a peptide of the spike HR2 region

From the AlphaSeq antibody data of Engelhart et al. 2022 (doi:10.1038/s41597-022-01779-4), copy in the FLAb collection.

All variants were tested on one target, the spike HR2 peptide PDVDLGDISGINAS (SARS-CoV-2).

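The library (AAYL49) carries one to three amino acid substitutions per variant, with no insertions or deletions. The assay is AlphaSeq: two haploid yeast populations carry antibody and antigen on their surface. Pairs that bind mate more often; barcode pairs of the diploids are counted by sequencing. Each replicate has its own calibration line, from reference interactions of the BCL2 family. Each pool was mated in three replicate cultures.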

Parent: Ab-14, a human scFv built as VH, a (GGGGS)3 linker, VL. Only the CDRs of the heavy chain vary.
VH: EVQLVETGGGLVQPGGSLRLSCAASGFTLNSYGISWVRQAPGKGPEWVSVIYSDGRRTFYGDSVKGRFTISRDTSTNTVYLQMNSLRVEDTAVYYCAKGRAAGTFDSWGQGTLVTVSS
VL: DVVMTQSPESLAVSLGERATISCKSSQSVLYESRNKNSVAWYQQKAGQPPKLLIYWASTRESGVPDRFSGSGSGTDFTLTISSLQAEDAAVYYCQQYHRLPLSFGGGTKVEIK

Changes read parent residue, position, new residue, counted from the first residue of the VH shown. Numbers give log10(Kd / nM), so 0 is 1 nM and 3 is 1 µM. Smaller is tighter. "n.d." marks a missing value. The strain was present, yet no cells mated with the target were sequenced in that replicate, which points to weak or no binding. Parent in this assay: reference entry 0.65, copy in this library 4.11 (one replicate of three).

| # | changes | replicates, log10 nM | control signals |
|---|---|---|---|
| 1 | L29T/T58K/Y60K | n.d. / n.d. / n.d. | 0 of 9 |
| 2 | I34F/R56L/K65Y | n.d. / n.d. / n.d. | 1 of 9 (3.53) |
| 3 | F27E/V64N | n.d. / n.d. / n.d. | 0 of 9 |
| 4 | G26H/R100I/F105N | n.d. / n.d. / n.d. | 0 of 9 |
| 5 | R56S/F105H/D106M | 2.48 / 2.38 / 2.57 | 2 of 9 (4.16) |
| 6 | S31E/I51K/S53M | 6.22 / 4.52 / 5.45 | 4 of 9 (4.17) |
| 7 | T28C/N30D/G61I | 2.10 / 1.90 / 2.38 | 2 of 9 (4.97) |
| 8 | I34C/R56Y/G103E | n.d. / n.d. / 3.27 | 0 of 9 |
| 9 | S31C/I51C/T58R | n.d. / n.d. / n.d. | 1 of 9 (4.69) |
| 10 | Y52W/F59E/A102G | 4.28 / 3.31 / 4.02 | 2 of 9 (4.11) |
| 11 | G26Y/I51E/D106M | n.d. / n.d. / n.d. | 0 of 9 |
| 12 | V50N/T58Q | n.d. / n.d. / n.d. | 0 of 9 |
| 13 | Y60N/A101F/G103H | n.d. / n.d. / n.d. | 1 of 9 (2.63) |
| 14 | G99F/A101E | n.d. / 3.34 / 4.52 | 1 of 9 (4.84) |
| 15 | G26V/G33E/I51S | n.d. / n.d. / n.d. | 0 of 9 |
| 16 | S53Y/G61M/G103V | 2.50 / 2.73 / 3.33 | 1 of 9 (3.44) |
| 17 | S35W/F59E/D106W | n.d. / 3.57 / n.d. | 0 of 9 |
| 18 | L29E/S107E | n.d. / n.d. / n.d. | 2 of 9 (3.92) |
| 19 | L29W/G99E/S107W | n.d. / 4.53 / n.d. | 1 of 9 (4.90) |
| 20 | F59Q/G61K/V64M | 4.45 / n.d. / n.d. | 1 of 9 (3.33) |
| 21 | Y32P/Y52L/G103H | n.d. / n.d. / n.d. | 0 of 9 |
| 22 | G99A | n.d. / n.d. / n.d. | 1 of 9 (4.28) |
| 23 | Y60W/R100I/G103V | 5.55 / n.d. / 6.12 | 6 of 9 (4.80) |
| 24 | N30T/S35A/V64R | n.d. / n.d. / 4.03 | 0 of 9 |
| 25 | L29D/Y32I/G103Q | n.d. / n.d. / n.d. | 0 of 9 |
| 26 | Y32P/Y52G/R57Y | n.d. / n.d. / n.d. | 0 of 9 |
| 27 | G26W/I51H/G99M | n.d. / n.d. / n.d. | 0 of 9 |
| 28 | G26N/K65I/D106F | n.d. / n.d. / n.d. | 1 of 9 (3.66) |
| 29 | G61D/D62Y/V64C | 3.70 / 2.96 / 3.04 | 2 of 9 (2.79) |
| 30 | T28E/G55Q/R100S | 4.75 / 3.60 / n.d. | 0 of 9 |

The closing 4 entries, repeated:

| changes | replicates, log10 nM | control signals |
|---|---|---|
| G26W/I51H/G99M | n.d. / n.d. / n.d. | 0 of 9 |
| G26N/K65I/D106F | n.d. / n.d. / n.d. | 1 of 9 (3.66) |
| G61D/D62Y/V64C | 3.70 / 2.96 / 3.04 | 2 of 9 (2.79) |
| T28E/G55Q/R100S | 4.75 / 3.60 / n.d. | 0 of 9 |

Three control strains display no target. For library AAYL49, 15% of the pairings with them gave a signal, with a median of 4.06 and one signal in twenty below 2.83, so weak values seen in few replicates may be background. Also given: how often the same scFv was detected with the empty control strains, with their mean in brackets.